# Data taken from paper PMC8072975 (Pharmaceutics, 2021).
# Read-outs that look alike come from different tables or passages of the source.
# How the values were obtained:
# [1] = in vivo; cited from earlier work
# [2] = human, in vivo, iv, 6 mg/kg
# [3] = in vivo; cited from earlier work; remark: listed apart in the source
# [4] = human plasma, peak area of A2-2, mean ± SD, n = 3; for Stability 4 °C, 36 h (%): short-term, relative recovery vs freshly prepared sample, HPLC-UV 220 nm; for Stability Freeze-Thaw (%): three freeze-thaw cycles at −70 °C, HPLC-UV
substance,measurement,setting,value
teicoplanin,"Steady-state trough concentrations (Css, min) in human plasma",[1],≥ 10000 ng/mL
same,"Highest plasma concentration, found at 0.5 h",[2],47.3 to 85.4 mg/L
same,Plasma concentration after the loading dose (at 24 h),[2]; 24 h,approximately 12.0 mg/L
same,Half-life,[3],approximately 100 h
same,"Stability 4 °C, 36 h (%)",[4]; teicoplanin high conc. 500.0 mg/L (mixture),103.3 ± 2.29%
same,"Stability 4 °C, 36 h (%)",[4]; teicoplanin low conc. 7.81 mg/L (mixture),106.1 ± 13.1%
same,Stability Freeze-Thaw (%),[4]; teicoplanin high conc. 500.0 mg/L,112.4 ± 5.12%
same,Stability Freeze-Thaw (%),[4]; teicoplanin low conc. 7.81 mg/L,111.4 ± 6.26%
